Target: human Y2 receptor (human) (UniProt P49146)
Assay: cell-based or functional assay

Protein sequences, listed by entry. Tags and fused reporters are not part of them.
UniProt P49146, whole entry: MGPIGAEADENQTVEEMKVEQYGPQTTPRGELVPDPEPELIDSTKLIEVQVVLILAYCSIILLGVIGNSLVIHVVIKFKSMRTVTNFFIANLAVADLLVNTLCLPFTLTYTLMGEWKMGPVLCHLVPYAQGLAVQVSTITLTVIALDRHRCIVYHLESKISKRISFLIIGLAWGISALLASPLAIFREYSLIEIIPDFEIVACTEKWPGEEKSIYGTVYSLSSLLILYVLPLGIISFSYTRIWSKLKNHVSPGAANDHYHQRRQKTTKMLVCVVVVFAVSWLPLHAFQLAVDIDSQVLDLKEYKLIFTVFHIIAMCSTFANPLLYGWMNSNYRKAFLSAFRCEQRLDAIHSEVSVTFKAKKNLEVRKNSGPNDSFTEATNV

## PYY3-36 (peptide)
  EC50, cAMP assay (LANCE) on receptor-expressing cells: 0.08 nM
